PubChem BioAssay AID1053175 (ICCB-Longwood Screening Facility, Harvard Medical School, 2014)
The list shows a part of the results, in another mix than the full data. Some results for these compounds are left out of this collection, so the calls shown say nothing about other tests. Calls of active or inactive are those of the source.

experiment: E. coli growth inhibition, primary screen, OD600 (AID 1053175); conditions: Escherichia coli growth, OD600, 23 h; hits give low values

SMILES	OD600 absorbance
Cc1ccc(C(=O)NCC2(N3CCCCC3)CCCCC2)cc1	inactive: 0.674
COc1cc(SC)ccc1C(=O)NCC1(N(C)C)CCCCC1	inactive: 0.648
CN1[C@@H]2CC[C@H]1CC(OC(=O)C(O)(c1ccccc1)c1ccccc1)C2 (stereo partly drawn)	inactive: 0.683
O=C(NCC1(N2CCCCC2)CCCCC1)c1cc([N+](=O)[O-])ccc1Cl	inactive: 0.667
COc1ccc(C(=O)NCC2(N(C)C)CCCCC2)cc1	inactive: 0.67
O=C(NCC1(N2CCCCC2)CCCCC1)c1cccc(Br)c1	inactive: 0.67
CCN1CCCC(OC(=O)C2(O)c3ccccc3C=Cc3ccccc32)C1 (stereo not drawn)	inactive: 0.658
Cc1cc(C(=O)NCC2(N3CCCCC3)CCCCC2)ccc1[N+](=O)[O-]	inactive: 0.659
O=C(NCC1(N2CCCCC2)CCCCC1)c1cc(F)c(F)cc1Cl	inactive: 0.695
CN(C)CCOC(=O)C(O)(c1ccccc1)C1CCCCC1 (stereo not drawn)	inactive: 0.7
CN(C)c1ccc(C(=O)NCC2(N(C)C)CCCCC2)cc1	inactive: 0.682
CN(C)C1CCCC1OC(=O)C(O)(c1ccccc1)c1ccccc1 (stereo not drawn)	inactive: 0.682
Cc1ccccc1C(=O)NCC1(N2CCCCC2)CCCCC1	inactive: 0.636
O=C(NCC1(N2CCCCC2)CCCCC1)c1cccc(Cl)c1	inactive: 0.617
COc1ccc(Cl)cc1C(=O)NCC1(N(C)C)CCCCC1	inactive: 0.716
COc1cccc(C(=O)NCC2(N3CCCCC3)CCCCC2)c1	inactive: 0.708
COc1cc(C(=O)NCC2(N(C)C)CCCCC2)c([N+](=O)[O-])cc1OC	inactive: 0.632
CN(C)C1(CNC(=O)c2ccc(Br)cc2)CCCCC1	inactive: 0.663
O=C(OCCN1CCCC1)C(O)(c1ccccc1)c1ccccc1	inactive: 0.672
CC(C)Oc1ccc(C(=O)NCC2(N(C)C)CCCCC2)cc1	inactive: 0.681
CN(C)c1cccc(C(=O)NCC2(N(C)C)CCCCC2)c1	inactive: 0.81
COc1ccc(Br)c(C(=O)NCC2(N3CCCCC3)CCCCC2)c1	inactive: 0.703
O=C(OC1CN2CCC1CC2)C(CO)(c1ccccc1)c1ccccc1 (stereo not drawn)	inactive: 0.625
